Data taken from article PMC4821887, “Identification of chemicals that mimic transcriptional changes associated with autism, brain aging and neurodegeneration” (Nature Communications, 2016).

Tested on: mouse cortical neuron cultures

Compound: CCCSP(=O)(OCC)SCCC [Ethoprop]
- % Dead cells (vehicle subtracted): 0.4679%
